Target: T1, Pteridine reductase 1 (Leishmania major, UniProt Q01782)
T1 sequence (Q01782 whole entry): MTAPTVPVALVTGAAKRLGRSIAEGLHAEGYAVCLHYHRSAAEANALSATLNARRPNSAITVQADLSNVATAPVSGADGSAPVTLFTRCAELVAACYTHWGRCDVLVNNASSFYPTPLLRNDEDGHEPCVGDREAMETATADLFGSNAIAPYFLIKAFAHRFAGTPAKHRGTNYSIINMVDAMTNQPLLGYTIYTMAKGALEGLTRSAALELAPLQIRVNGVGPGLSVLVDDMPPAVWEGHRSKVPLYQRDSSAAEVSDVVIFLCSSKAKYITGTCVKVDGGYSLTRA
Test: Inhibition of recombinant Leishmania major PTR1 expressed in Escherichia coli BL21 (DE3) cells using H2B as substrate in presence of cytochrome c and NADPH by envision multilabel reader

Compound: COC(=O)C1CCN(C(=O)c2ccc(N(C)Cc3cnc4nc(N)nc(N)c4n3)cc2)CC1
- IC50: 980 nM

Compound: COC(=O)C1CCN(C(=O)c2ccc(N(CCO)Cc3cnc4nc(N)nc(N)c4n3)cc2)CC1
- IC50: 4720 nM
